Reference: PMC8915595, “Revisiting the application of Immobilized Artificial Membrane (IAM) chromatography to estimate in vivo distribution properties of drug discovery compounds based on the model of marketed drugs” (ADMET & DMPK, 2020)

Sequences of proteins named here, by UniProt entry; tags and fusion partners are left off. Residues count along the entry.
UniProt P02768, 25-609: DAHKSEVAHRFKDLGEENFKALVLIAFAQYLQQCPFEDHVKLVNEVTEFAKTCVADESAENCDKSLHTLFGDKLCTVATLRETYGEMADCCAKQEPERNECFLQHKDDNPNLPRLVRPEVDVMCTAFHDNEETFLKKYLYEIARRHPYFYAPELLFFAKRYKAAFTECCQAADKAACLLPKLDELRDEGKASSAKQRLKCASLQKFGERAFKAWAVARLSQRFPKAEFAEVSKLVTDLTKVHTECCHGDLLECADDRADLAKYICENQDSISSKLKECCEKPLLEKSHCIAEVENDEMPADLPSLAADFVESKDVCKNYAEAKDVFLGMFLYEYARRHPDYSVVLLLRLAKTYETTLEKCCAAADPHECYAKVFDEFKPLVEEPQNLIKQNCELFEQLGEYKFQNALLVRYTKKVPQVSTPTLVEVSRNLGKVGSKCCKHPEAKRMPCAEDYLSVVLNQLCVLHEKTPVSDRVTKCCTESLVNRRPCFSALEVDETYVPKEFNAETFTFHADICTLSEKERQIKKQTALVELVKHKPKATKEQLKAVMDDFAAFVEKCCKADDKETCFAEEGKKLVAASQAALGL

Tests used:
[1] = molecular target: T1, human serum albumin (HSA) (Homo sapiens, UniProt P02768); settings: cited from earlier work
[2] = molecular target: T1, human serum albumin (HSA); test: Protein binding on chemically bonded HSA column (Chiralpak-HSA); settings: remeasured in this study, pH 7.4
[3] = human

Structure (SMILES)	log K HSA [2]	log K HSA from ref [13] [1]	reference log Vdss [3]
CC(CCc1ccccc1)NCC(O)c1ccc(O)c(C(N)=O)c1 (stereo not drawn)	0.52	0.69	
Clc1ccc2c(c1)C(N1CCNCC1)=Nc1ccccc1O2 [Amoxapine]			1.67
CC(=O)N1CCN(c2ccc(OCC3COC(Cn4ccnc4)(c4ccc(Cl)cc4Cl)O3)cc2)CC1 (stereo not drawn) [Ketoconazole]	5.40	4.8	
O=c1n(CCCN2CCN(c3cccc(Cl)c3)CC2)nc2ccccn12 [Trazodone]			0.01

Second part, led by results:

log K HSA [2]	Structure (SMILES)	log K HSA from ref [13] [1]	reference log Vdss [3]
1.08	C[C@]12C=CC(=O)C=C1CC[C@@H]1[C@@H]2[C@@H](O)C[C@@]2(C)[C@H]1CC[C@]2(O)C(=O)CO	0.8	
1.44	CC(=O)Nc1nnc(S(N)(=O)=O)s1 [Acetazolamide]		
1.39	C[C@H]1C[C@H]2[C@@H]3CCC4=CC(=O)C=C[C@]4(C)[C@@]3(F)[C@@H](O)C[C@]2(C)[C@@]1(O)C(=O)CO [Betamethasone]	1.09	
8.50	CCOC(=O)c1ncn2c1CN(C)C(=O)c1cc(F)ccc1-2 [Flumazenil]		
